The numbers were not newly measured in patent publication US7820706B2, “Multiple dose aromatase inhibitor for treating infertility” (Ares Trading S.A., priority 2001, dated 2010), which cites them from elsewhere.

For the series the following is noted: oral compared with same dose intravenously; cited from earlier work.

On to `N#Cc1ccc(C(c2ccc(C#N)cc2)n2cncn2)cc1` [letrozole], for which the absolute systemic bioavailability is reported as 100%.
